Columns and labels:
[1] = target: T1, RAC-alpha serine/threonine-protein kinase (Homo sapiens, UniProt P31749); assay: Inhibition of human Akt1 in human C33A cells by immunoprecipitation kinase assay; type: cell-based, C-33-A
[2] = target: T1, RAC-alpha serine/threonine-protein kinase; assay: Inhibition of Akt1

Chains of the proteins cited; added tags and fusions are not shown. Lines headed by an entry give the natural chain unless they say otherwise; changes in a name come on top.
UniProt P31749: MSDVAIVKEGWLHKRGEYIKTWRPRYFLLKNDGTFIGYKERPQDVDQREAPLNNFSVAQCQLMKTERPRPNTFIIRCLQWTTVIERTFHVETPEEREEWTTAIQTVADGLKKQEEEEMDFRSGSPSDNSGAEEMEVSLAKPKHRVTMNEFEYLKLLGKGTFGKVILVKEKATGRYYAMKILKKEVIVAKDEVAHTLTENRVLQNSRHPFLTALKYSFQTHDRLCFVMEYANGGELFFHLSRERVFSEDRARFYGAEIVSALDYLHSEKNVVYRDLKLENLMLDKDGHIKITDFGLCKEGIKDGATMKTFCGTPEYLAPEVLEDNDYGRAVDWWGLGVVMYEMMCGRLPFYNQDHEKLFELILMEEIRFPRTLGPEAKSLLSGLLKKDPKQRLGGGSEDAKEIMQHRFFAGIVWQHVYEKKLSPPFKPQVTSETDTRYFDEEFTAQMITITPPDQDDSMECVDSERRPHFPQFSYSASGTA

IC50 [1]: 277 nM
IC50 [2]: 18 nM
Structure (SMILES): Nc1ncnc2nc(-c3ccc(CN4CCC(c5nc6ccc(F)cc6[nH]5)CC4)cc3)c(-c3ccccc3)cc12
